Literature values in patent publication US11219580B2, “Oral composition” (Andalay Technologies Limited, priority 2016, dated 2022).

Test system: rat
Conditions: cited from earlier work

For Sorbitan monolaurate, the LD50 rat is listed as 36,700 μL/kg.
